# Assay results: paper PMC6076264, “Visualization of translation termination intermediates trapped by the Apidaecin 137 peptide during RF3-mediated recycling of RF1” (Nature Communications, 2018)
# Target: ribosomal protein bL19 (E. coli (endogenous in ribosomes of …))
# Experiment: cryo-EM structure; 70S-tRNA(fMet) complexes on start-stop mRNA with 2.5x RF1-GAQ and 50 uM API, then 7.5x RF3-GDPCP; buffer A (30 mM HEPES pH 7.4, 70 mM NH4Cl, 5 mM MgCl2, 30 mM KCl); states I-IV at 3.8-3.9 A and RF3-70S
# Settings: both partners purified
binder,measurement,value
"RF3 (release factor 3), bound to GDPCP (natural protein, Peptide chain release factor RF3, translational GTPase, E. coli; pre-incubated with 1 mM GDPCP; also called RF3-GDPCP) MTLSPYLQEVAKRRTFAIISHPDAGKTTITEKVLLFGQAIQTAGTVKGRGSNQHAKSDWMEMEKQRGISITTSVMQFPYHDCLVNLLDTPGHEDFSEDTYRTLTAVDCCLMVIDAAKGVEDRTRKLMEVTRLRDTPILTFMNKLDRDIRDPMELLDEVENELKIGCAPITWPIGCGKLFKGVYHLYKDETYLYQSGKGHTIQEVRIVKGLNNPDLDAAVGEDLAQQLRDELELVKGASNEFDKELFLAGEITPVFFGTALGNFGVDHMLDGLVEWAPAPMPRQTDTRTVEASEDKFTGFVFKIQANMDPKHRDRVAFMRVVSGKYEKGMKLRQVRTAKDVVISDALTFMAGDRSHVEEAYPGDILGLHNHGTIQIGDTFTQGEMMKFTGIPNFAPELFRRIRLKDPLKQKQLLKGLVQLSEEGAVQVFRPISNNDLIVGAVGVLQFDVVVARLKSEYNVEAVYESVNVATARWVECADAKKFEEFKRKNESQLALDGGDNLAYIATSMVNLRLAQERYPDVQFHQTREH",binding result,binds
